The values that follow come from paper PMC4956231, “Molecular Mechanisms for Drug Hypersensitivity Induced by the Malaria Parasite’s Chloroquine Resistance Transporter” (PLoS Pathogens, 2016).

Chains of the proteins cited; added tags and fusions are not shown.
UniProt Q9N623, whole entry A220S/K76I/M74I/N326S/N75E/Q271E/R371I: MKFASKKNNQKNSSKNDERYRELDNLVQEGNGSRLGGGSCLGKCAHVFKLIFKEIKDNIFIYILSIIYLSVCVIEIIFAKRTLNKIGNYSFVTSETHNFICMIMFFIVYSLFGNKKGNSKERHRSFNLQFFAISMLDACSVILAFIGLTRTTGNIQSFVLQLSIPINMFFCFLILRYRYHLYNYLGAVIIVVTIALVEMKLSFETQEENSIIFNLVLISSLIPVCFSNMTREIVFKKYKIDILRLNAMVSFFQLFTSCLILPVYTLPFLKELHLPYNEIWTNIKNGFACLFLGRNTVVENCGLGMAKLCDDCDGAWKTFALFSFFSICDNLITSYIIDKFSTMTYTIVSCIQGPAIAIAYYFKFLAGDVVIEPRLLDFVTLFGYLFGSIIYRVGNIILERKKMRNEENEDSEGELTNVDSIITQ

One experiment has as its system 76N-PfCRT^K1. The experiment can be described thus: [3H]drug transport into Xenopus oocytes expressing PfCRT. The format is cell-based, Plasmodium falciparum. As to conditions: pH 5.0, 1 μM unlabeled drug (S4 Fig). The method, then: (§1) For each treatment, 10 oocytes were transferred to a 5 mL polystyrene round bottom tube (Falcon) and washed twice with 3.5 mL of ND96 buffer, with the residual buffer removed by pipette. […] The assay was terminated by removing the reaction buffer with a pipette and washing the oocytes twice with 3.5 mL of ice-cold ND96 buffer. Each oocyte was transferred to a separate well of a white 96-well plate (NUNC or PerkinElmer), incubated overnight at room temperature in 30 μL of 10% SDS, and mixed on an orbital shaker the following day for approximately 5 min. The lysed oocyte was then combined with 150 μL of MicroScint-40 microscintillant (PerkinElmer), the plate covered with a TopSeal-A (PerkinElmer), and the radioactivity measured with a PerkinElmer MicroBeta^2 microplate liquid scintillation analyzer.
(§2) Note that noninjected oocytes and oocytes expressing PfCRT^3D7 take up [^3H]CQ to similar (low) levels via simple diffusion of the neutral species of the drug; this represents the ‘background’ level of [^3H]CQ accumulation in oocytes (refer to Martin et al. for full data and discussion).

Another experiment relates to PfCRT^K1. Described as above. Format: cell-based, Plasmodium falciparum. The note with it: for rate of uptake mediated by PfCRT^K1 relative to PfCRT^Dd2: pH 5.0, 1 μM unlabeled drug (S4 Fig). The method, then:
as §1, §2

For another experiment, the target named is 76I-PfCRT^K1 (Plasmodium falciparum, UniProt Q9N623, A220S/K76I/M74I/N326S/N75E/Q271E/R371I). The format is cell-based. As to conditions: for rate of transport via 76I-PfCRT^K1 relative to 76I-PfCRT^Dd2: pH 5.0, 1 μM unlabeled drug (S4 Fig).
Experiment [1] has as its system P. falciparum isolate HON. As to conditions: HON (PfCRT^3D7); IC50 in line divided by IC50 in drug-sensitive reference strain; cited from earlier work.
The next experiment has as its system P. falciparum Dd2. The note with it: Dd2 (PfCRT^Dd2); IC50 in line divided by IC50 in drug-sensitive reference strain; cited from earlier work.
In a further experiment the test system is P. falciparum 106/1. The note with it: 106/1 (76K-PfCRT^K1); IC50 in line divided by IC50 in drug-sensitive reference strain; cited from earlier work.
The test system of experiment [2] is P. falciparum line 106/1^76T. As to conditions: 106/1^76T (PfCRT^K1); IC50 in line divided by IC50 in drug-sensitive reference strain; cited from earlier work.
Experiment [3] has as its system P. falciparum line 106/1^76N. As to conditions: 106/1^76N (76N-PfCRT^K1); IC50 in line divided by IC50 in drug-sensitive reference strain; cited from earlier work.
Experiment [4] relates to P. falciparum line 106/1^76I. As to conditions: 106/1^76I (76I-PfCRT^K1); IC50 in line divided by IC50 in drug-sensitive reference strain; cited from earlier work.
Experiment [5] concerns P. falciparum line 106/1^72R,76I. As to conditions: 106/1^72R,76I (72R,76I-PfCRT^K1); IC50 in line divided by IC50 in drug-sensitive reference strain; cited from earlier work.
The subject of experiment [6] is P. falciparum line 106/1^76I,352K. As to conditions: 106/1^76I,352K (76I,352K-PfCRT^K1); IC50 in line divided by IC50 in drug-sensitive reference strain; cited from earlier work.
The subject of experiment [7] is P. falciparum line 106/1^76I,352R. As to conditions: 106/1^76I,352R (76I,352R-PfCRT^K1); IC50 in line divided by IC50 in drug-sensitive reference strain; cited from earlier work.
The test system of experiment [8] is P. falciparum line 106/1^76I,369F. As to conditions: 106/1^76I,369F (76I,369F-PfCRT^K1); IC50 in line divided by IC50 in drug-sensitive reference strain; cited from earlier work.
In the next experiment the test system is P. falciparum line K1AM. As to conditions: K1AM (163R,356V-PfCRT^K1); IC50 in line divided by IC50 in drug-sensitive reference strain; cited from earlier work.

With `C=C[C@H]1C[N@@]2CC[C@H]1C[C@@H]2[C@@H](O)c1ccnc2ccc(OC)cc12` [quinidine], the “transport activity of 76N-PfCRT^K1 relative to 76N-PfCRT^Dd2” value in the experiment with 76N-PfCRT^K1 turned out to be 3.2 times. In the experiment on PfCRT^K1, the “rate of uptake mediated by PfCRT^K1 relative to PfCRT^Dd2” value was 1.2–1.3 times. Further, the “rate of transport via 76I-PfCRT^K1 relative to 76I-PfCRT^Dd2” value at 76I-PfCRT^K1 is reported as 1.5 times. Also, at 76I-PfCRT^K1 (quinidine transport), the “increase in affinity of 76I-PfCRT^K1 (relative to PfCRT^K1)” value is on record as 3 fold. Moreover, the “Drug susceptibility (In vitro resistance index)” value was 1 in experiment [1]; 2.88 ± 0.46 in the experiment with P. falciparum Dd2; 1.01 ± 0.01 in the experiment on P. falciparum 106/1; 1.95 ± 0.05 in experiment [2]; 1.08 ± 0.08 in [3]; 1.72 ± 0.13 in [4]. The “Drug susceptibility (In vitro resistance index)” value is 0.87 ± 0.06 in experiment [5], 1.28 ± 0.07 in experiment [6], 0.88 ± 0.02 in [7] and 0.98 in experiment [8].
Usually Km stands for the substrate concentration at which the rate is half of its maximum. As for `C=C[C@H]1C[N@@]2CC[C@H]1C[C@H]2[C@H](O)c1ccnc2ccc(OC)cc12` [quinine], the “transport activity of 76N-PfCRT^K1 relative to 76N-PfCRT^Dd2” value in the experiment on 76N-PfCRT^K1 worked out at 3.1 times. The “rate of uptake mediated by PfCRT^K1 relative to PfCRT^Dd2” value with PfCRT^K1 is 1.2–1.3 times. In the experiment with PfCRT^K1 (transport via PfCRT^K1 in oocytes, CQ pH 6.0, quinine and quinidine pH 5.0, 76K-PfCRT^K1 control subtracted, read-out: Apparent Km), the Km amounted to 28.8 ± 2.7 µM. Moreover, the “rate of transport via 76I-PfCRT^K1 relative to 76I-PfCRT^Dd2” value at 76I-PfCRT^K1 was determined as 0.55 times. Besides, the “Drug susceptibility (In vitro resistance index)” value in [1] is listed as 1; in the experiment on P. falciparum Dd2 it was 1.82 ± 0.31; with P. falciparum 106/1, 1.08 ± 0.06; in experiment [2] it was 1.69 ± 0.19; in experiment [3], 1.56 ± 0.16; in [4], 0.11 ± 0.04. In addition, the “Drug susceptibility (In vitro resistance index)” value in experiment [5] was 0.76 ± 0.07; in [6], 0.93 ± 0.25; in [7], 0.99 ± 0.16; in experiment [8], 0.28; with P. falciparum line K1AM, 0.72.
